The text below walks through data of PMC2821452 (Synapse (New York, N.Y.), 2010).

Protein sequences, listed by entry. Tags and fused reporters are not part of them.
UniProt P35372, whole entry: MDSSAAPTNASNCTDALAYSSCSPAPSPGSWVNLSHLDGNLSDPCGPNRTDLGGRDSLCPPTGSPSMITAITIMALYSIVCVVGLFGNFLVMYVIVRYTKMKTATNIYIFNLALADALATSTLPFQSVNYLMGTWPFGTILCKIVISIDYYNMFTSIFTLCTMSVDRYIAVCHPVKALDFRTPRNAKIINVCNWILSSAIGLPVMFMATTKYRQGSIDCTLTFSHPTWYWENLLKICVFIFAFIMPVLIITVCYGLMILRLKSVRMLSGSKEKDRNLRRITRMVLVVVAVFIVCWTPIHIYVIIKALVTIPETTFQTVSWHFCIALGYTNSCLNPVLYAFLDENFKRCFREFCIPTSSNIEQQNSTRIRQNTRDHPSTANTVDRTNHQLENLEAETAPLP

The target in this test is cloned human mu opioid receptor (hMOR-CHO cells) (Homo sapiens, UniProt P35372). The note with it: control cell membranes, Fig. 1A.

The term EC50 denotes the concentration at which the effect is half-maximal. A high value points to a less potent agent.

Turning to `Cl.Oc1cccc([C@]23CCC[C@H](C2)N(C/C=C\c2ccccc2)CC3)c1` [KC-2-009, (+)-3-((1R,5S)-2-((Z)-3-Phenylallyl)-2-azabicyclo[3.3.1]nonan-5-yl)phenol hydrochloride], the EC50 amounted to 0.012 ± 0.004 µM.
